Laboratory results taken from PubChem BioAssay AID596 (National Center for Advancing Translational Sciences (NCATS), 2007).
Out of some 71,000 compounds screened, about 1,400 (2%) were called active. The source calls these results inconclusive, neither active nor inactive. Calls come from the whole dose curve; as a rule, active = well fitted curve in the direction sought with a large enough effect; inconclusive = small, poorly fitted or top-dose-only effect; inactive = no such curve, though single readings can be large or run the other way.

Sequences of proteins named here, by UniProt entry; tags and fusion partners are left off.
UniProt P10636, whole entry, looked up: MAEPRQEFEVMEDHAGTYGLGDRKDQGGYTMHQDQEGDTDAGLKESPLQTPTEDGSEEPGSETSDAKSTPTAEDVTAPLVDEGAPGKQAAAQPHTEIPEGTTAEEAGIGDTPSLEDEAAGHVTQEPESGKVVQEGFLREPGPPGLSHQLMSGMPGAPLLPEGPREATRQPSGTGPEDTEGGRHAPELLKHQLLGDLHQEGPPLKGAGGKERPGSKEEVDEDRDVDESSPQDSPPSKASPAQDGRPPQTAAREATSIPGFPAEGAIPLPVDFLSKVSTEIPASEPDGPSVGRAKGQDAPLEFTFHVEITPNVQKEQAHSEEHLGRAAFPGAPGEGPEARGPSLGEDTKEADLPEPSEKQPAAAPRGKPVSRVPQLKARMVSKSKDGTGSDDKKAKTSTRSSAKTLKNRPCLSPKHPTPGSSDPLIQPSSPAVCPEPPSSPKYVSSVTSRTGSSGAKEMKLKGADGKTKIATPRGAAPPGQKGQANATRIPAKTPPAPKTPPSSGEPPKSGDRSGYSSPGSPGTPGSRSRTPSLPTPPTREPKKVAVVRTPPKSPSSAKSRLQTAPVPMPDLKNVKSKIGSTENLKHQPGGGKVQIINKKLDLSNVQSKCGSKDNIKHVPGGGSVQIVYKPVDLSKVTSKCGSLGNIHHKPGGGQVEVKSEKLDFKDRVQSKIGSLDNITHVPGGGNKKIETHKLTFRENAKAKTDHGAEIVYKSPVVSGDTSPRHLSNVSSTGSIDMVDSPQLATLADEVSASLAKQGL

What follows are compounds tested against Microtubule-associated protein tau (Homo sapiens) (UniProt P10636) (assay: qHTS Assay for Tau Filament Binding). Conditions: recombinant tau filaments, thioflavin S fluorescence, 15 h; filaments grown with octadecylsulfate alongside compound.
Excerpt: NIH Molecular Libraries Screening Centers Network [MLSCN]
NIH Chemical Genomics Center [NCGC]
Assay Provider: Jeffrey A. Kuret, Ohio State University
Tau monomers form filaments in vitro in the presence of anionic detergents or fatty acids. The dye Thioflavine S (ThS) binds to tau filaments and upon binding, increases in fluorescence several fold. Small molecules that displace ThS binding or prevent filament binding are identified by a reduction in ThS fluorescence. This assay used histidine-tagged, recombinant human tau protein containing the products of exons 2, 3, and 10 that was provided by Jeff Kuret, Ohio State University. To form filaments, 1 uM tau was incubated with 30 uM sodium octadecylsulfate (ODS) in reagent buffer (10 uM thioflavine S, 5 mM 1,4-dithioerythreitol (DTT), 100 mM sodium chloride, 10 mM HEPES pH 7.4) for 15 hrs at 37 C.
NCGC Assay Protocol Summary:
Assay Steps. Two uL/well of 2 uM tau in reagent buffer (10 uM thioflavine S, 5 mM DTT, 100 mM sodium chloride, 10 mM HEPES pH 7.4) was dispensed into solid black 1536-well plates. Twenty-three nL compound was transferred to the assay plate after which 2 uL/well of 60 uM ODS in reagent buffer was dispensed for a final assay volume of 4 uL /well. Following 15 hours of incubation at 37 C, fluorescence was detected by an Envision (Perkin Elmer) using 450/8 nm excitation and 510/23 nm emission. […]
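Note: actives lower thioflavin S fluorescence by blocking filaments or displacing dye.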
Potency is the fitted concentration of half-maximal effect.

Compound | Potency
CN(C(=O)Cc1ccc(Cl)c(Cl)c1)[C@H]1CCCC[C@@H]1N1CCCC1 | inconclusive: 39.8 µM
O=C(OC1CN2CCC1CC2)C12CC3CC(CC(C3)C1)C2 (configuration not stated) | inconclusive: 25.1 µM
